# OPERA 2.9 data: vapor pressure values

Values as listed in the OPERA 2.9 repository of K. Mansouri.

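These are experimental values that the OPERA curators gathered from public databases to train and test their QSAR models. One number stands for a compound and property, with no spread given. Method, purity and exact conditions of the single measurements are not given. Where a salt, mixture or single isomer is drawn, the source does not say that exactly this form was tested. Some upstream entries may be estimates or bounds without being marked so.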

Vapor pressure is log10 of mmHg; the set covers 15 to 30 °C, mostly 20 to 25 °C. "n/a" marks a cell with nothing listed here.

- FC(F)OCC(F)(F)C(F)F [Difluoromethyl 2,2,3,3-tetrafluoropropyl ether]: vapor pressure 1.945 (log10 mmHg)
- O=C(O)COc1ccc(Cl)cc1 [4-Chlorophenoxyacetic acid]: vapor pressure -6.745 (log10 mmHg)
- CCCCCCCCCC[N+](C)(C)CCCCCCCCCC.CCCCCCCCCC[N+](C)(C)CCCCCCCCCC.CCCCCCCCCC[N+](C)(C)CCCCCCCCCC.O=C([O-])O.O=C([O-])[O-] [DDA Carbonate]: vapor pressure -4.238 (log10 mmHg)
- Clc1cc(Cl)c(-c2cc(Cl)c(Cl)c(Cl)c2)c(Cl)c1 [2,3',4,4',5',6-Hexachlorobiphenyl]: vapor pressure -5.435 (log10 mmHg)
- CC(C)(O)C(Cl)(Cl)Cl [1,1,1-Trichloro-2-methyl-2-propanol]: vapor pressure 1.085 (log10 mmHg)
- Clc1ccc(-c2ccccc2)c(Cl)c1Cl [2,3,4-Trichlorobiphenyl]: vapor pressure -3.695 (log10 mmHg)
- Nc1ccc([N+](=O)[O-])cc1Cl [2-Chloro-4-nitroaniline]: vapor pressure -5.462 (log10 mmHg)
- CCCCN(C)N=O [Nitrosomethyl-N-butylamine]: vapor pressure -0.222 (log10 mmHg)
- O=C(Cl)c1cccc(C(=O)Cl)c1 [1,3-Benzenedicarbonyl dichloride]: vapor pressure -2.664 (log10 mmHg)
- C=C(C)C(=O)OCC1CO1 (stereo not drawn) [Glycidyl methacrylate]: vapor pressure 0.498 (log10 mmHg)
- Clc1cccc(-c2cc(Cl)c(Cl)c(Cl)c2Cl)c1 [2,3,3',4,5-Pentachlorobiphenyl]: vapor pressure -4.425 (log10 mmHg)
- FC(F)C(F)(F)COC(F)(F)C(F)C(F)(F)F (stereo not drawn) [1,1,1,2,3,3-Hexafluoro-3-(2,2,3,3-tetrafluoropropoxy)propane]: vapor pressure 1.307 (log10 mmHg)
- CCCCCCCCCCCC(=O)OOC(=O)CCCCCCCCCCC [Peroxide, bis(1-oxododecyl)]: vapor pressure -5.921 (log10 mmHg)
- Nc1cc(Cl)ccc1O [2-Amino-4-chlorophenol]: vapor pressure -2.824 (log10 mmHg)
- COc1cc(OC)nc(Sc2cccc(Cl)c2C(=O)[O-])n1.[Na+] [Pyrithiobac sodium]: vapor pressure -10.44 (log10 mmHg)
- Clc1cc(Cl)cc(-c2ccccc2)c1 [3,5-Dichlorobiphenyl]: vapor pressure -3.235 (log10 mmHg)
- CCc1cc(Cc2cc(CC)c(N)c(CC)c2)cc(CC)c1N [4,4'-Methylenebis(2,6-diethylaniline)]: vapor pressure -11.65 (log10 mmHg)
- CCNC1CCCCC1 [N-Ethyl cyclohexylamine]: vapor pressure 0.263 (log10 mmHg)
- C[C@@H](Oc1ccc(Oc2ccc(C(F)(F)F)cn2)cc1)C(=O)O [Fluazifop-P]: vapor pressure -8.227 (log10 mmHg)
- Clc1ccc2oc3cc(Cl)c(Cl)cc3c2c1 [2,3,8-Trichlorodibenzofuran]: vapor pressure -4.095 (log10 mmHg)
- Clc1cc(Cl)c(Cl)c(-c2ccccc2)c1Cl: vapor pressure -3.943 (log10 mmHg)
- CCC(Cl)[N+](=O)[O-] (stereo not drawn) [1-Chloro-1-nitropropane]: vapor pressure 0.763 (log10 mmHg)

Excerpt, the final 3 entries:

| compound | name | vapor pressure (log10 mmHg) |
|---|---|---|
| Clc1ccc2oc3cc(Cl)c(Cl)cc3c2c1 | 2,3,8-Trichlorodibenzofuran | -4.095 |
| Clc1cc(Cl)c(Cl)c(-c2ccccc2)c1Cl | n/a | -3.943 |
| CCC(Cl)[N+](=O)[O-] (stereo not drawn) | 1-Chloro-1-nitropropane | 0.763 |